# Measurements reported in DBAASP.
# System: Staphylococcus aureus ATCC 12600
# Assay: ≥ marks a high value that may be exact or a test limit, other limits are often not marked, values filed in µg/mL are converted to µM
smiles,measurement,value
CC(C)C[C@H](NC(=O)[C@H](CC(C)C)NC(=O)[C@H](CCCN=C(N)N)NC(=O)[C@H](CC(C)C)NC(=O)[C@H](CC(C)C)NC(=O)[C@H](CCCN=C(N)N)NC(=O)[C@H](CCCN=C(N)N)NC(=O)[C@H](CC(C)C)NC(=O)[C@H](CC(C)C)NC(=O)[C@H](CCCN=C(N)N)NC(=O)[C@H](CC(C)C)NC(=O)[C@H](CC(C)C)NC(=O)[C@H](CCCN=C(N)N)NC(=O)[C@H](CC(C)C)NC(=O)[C@H](CCCN=C(N)N)NC(=O)[C@H](CC(C)C)NC(=O)[C@H](CCCN=C(N)N)NC(=O)[C@H](CCCN=C(N)N)NC(=O)[C@@H](N)CC(C)C)C(=O)O [LRRLRLRLLRLLRRLLRLL],MIC,≥ 128 µM
